Measured values reported in ChEMBL document CHEMBL1140340 (J Med Chem, 2005).

Chains of the proteins cited; added tags and fusions are not shown.
UniProt P23977, whole entry, looked up: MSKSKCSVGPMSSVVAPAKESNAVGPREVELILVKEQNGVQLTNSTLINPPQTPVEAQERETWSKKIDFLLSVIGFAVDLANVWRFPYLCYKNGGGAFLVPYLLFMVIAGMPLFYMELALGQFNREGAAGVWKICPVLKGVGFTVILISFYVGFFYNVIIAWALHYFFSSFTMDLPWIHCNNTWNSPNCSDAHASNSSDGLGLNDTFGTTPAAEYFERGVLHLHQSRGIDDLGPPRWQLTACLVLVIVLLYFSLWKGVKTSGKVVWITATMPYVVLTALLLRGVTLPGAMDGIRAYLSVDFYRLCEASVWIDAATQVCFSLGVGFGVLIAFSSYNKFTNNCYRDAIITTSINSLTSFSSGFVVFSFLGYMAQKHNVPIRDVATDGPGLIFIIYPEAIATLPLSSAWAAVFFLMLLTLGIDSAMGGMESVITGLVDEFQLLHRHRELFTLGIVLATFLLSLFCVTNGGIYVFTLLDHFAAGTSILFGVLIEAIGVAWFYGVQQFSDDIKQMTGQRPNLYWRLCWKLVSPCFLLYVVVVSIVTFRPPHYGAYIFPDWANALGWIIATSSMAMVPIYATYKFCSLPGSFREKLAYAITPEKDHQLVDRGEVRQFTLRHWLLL
UniProt P31652, whole entry, looked up: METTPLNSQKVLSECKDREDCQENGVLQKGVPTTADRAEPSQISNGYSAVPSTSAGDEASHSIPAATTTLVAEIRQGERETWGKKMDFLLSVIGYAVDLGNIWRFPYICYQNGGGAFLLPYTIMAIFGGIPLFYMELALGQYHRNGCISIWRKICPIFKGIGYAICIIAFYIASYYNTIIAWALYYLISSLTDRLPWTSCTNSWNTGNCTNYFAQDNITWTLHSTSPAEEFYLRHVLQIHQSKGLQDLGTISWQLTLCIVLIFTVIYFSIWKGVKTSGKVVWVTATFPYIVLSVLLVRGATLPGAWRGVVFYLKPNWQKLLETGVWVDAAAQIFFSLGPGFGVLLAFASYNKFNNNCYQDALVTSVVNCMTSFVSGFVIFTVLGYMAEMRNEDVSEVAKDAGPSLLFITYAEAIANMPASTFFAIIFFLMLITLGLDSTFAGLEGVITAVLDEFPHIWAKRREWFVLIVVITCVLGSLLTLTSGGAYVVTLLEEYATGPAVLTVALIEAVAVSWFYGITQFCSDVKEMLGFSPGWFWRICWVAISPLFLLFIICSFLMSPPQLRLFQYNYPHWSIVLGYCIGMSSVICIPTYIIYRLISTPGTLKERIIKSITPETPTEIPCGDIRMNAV

Key:
[1] = target: Monoamine transporters; Norepininephrine & dopamine (Rattus norvegicus) (UniProt P23977+Q9WTR4); test: Ratio between Dopamine transporter and Norepinephrine transporter uptake; type: protein assay
[2] = target: Monoamine transporters; Norepinephrine & serotonin (Rattus norvegicus) (UniProt P31652+Q9WTR4); test: Ratio between Serotonin transporter and Norepinephrine transporter uptake; type: protein assay
[3] = target: Monoamine transporters; serotonin & dopamine (Rattus norvegicus) (UniProt P31652+P23977); test: Ratio between Dopamine transporter and Serotonin transporter uptake; type: protein assay
[4] = target: Sodium-dependent dopamine transporter (Rattus norvegicus, UniProt P23977); test: Inhibition of [3H]WIN-35428 binding to rat brain dopamine transporter

Ratio [1] | Ratio [2] | Ratio [3] | IC50 [4] [nM] | SMILES
91 | 140 | 0.63 | 1860 | O[C@@H]1C[C@@H](C(c2ccccc2)c2ccccc2)OC[C@H]1NCc1ccccc1
0.37 | 8 | 0.046 |  | OC1CC(C(c2ccccc2)c2ccccc2)OCC1NCc1ccccc1 (single isomer, unassigned)
